Results reported in US8617534B2, “Compositions and method for manipulating PIM-1 activity in circulatory system cells” (San Diego State University (SDSU) Foundation, priority 2007, dated 2013).

Tested on: cardiac progenitor cells
Experiment: Cell growth of cardiac progenitor cells (trypan blue exclusion, proliferation rate)
Type: cell-based
Details: 10 uM in culture media; day two and three; compared to untreated CGW-Pim-wt CPCs

O=c1c(O)c(-c2ccc(O)c(O)c2)oc2cc(O)c(O)c(O)c12 [quercetagetin]
growth rate of CGW-Pim-wt CPCs: significantly decreased the growth rate
